Our source for the IC50 values is patent US9062026B2, “Fused pyrimidines and substituted quinazolines as inhibitors of p97” (Cleave Biosciences, Inc., priority 2012, dated 2015).

Sequences of proteins named here, by UniProt entry; tags and fusion partners are left off.
UniProt P55072, whole entry: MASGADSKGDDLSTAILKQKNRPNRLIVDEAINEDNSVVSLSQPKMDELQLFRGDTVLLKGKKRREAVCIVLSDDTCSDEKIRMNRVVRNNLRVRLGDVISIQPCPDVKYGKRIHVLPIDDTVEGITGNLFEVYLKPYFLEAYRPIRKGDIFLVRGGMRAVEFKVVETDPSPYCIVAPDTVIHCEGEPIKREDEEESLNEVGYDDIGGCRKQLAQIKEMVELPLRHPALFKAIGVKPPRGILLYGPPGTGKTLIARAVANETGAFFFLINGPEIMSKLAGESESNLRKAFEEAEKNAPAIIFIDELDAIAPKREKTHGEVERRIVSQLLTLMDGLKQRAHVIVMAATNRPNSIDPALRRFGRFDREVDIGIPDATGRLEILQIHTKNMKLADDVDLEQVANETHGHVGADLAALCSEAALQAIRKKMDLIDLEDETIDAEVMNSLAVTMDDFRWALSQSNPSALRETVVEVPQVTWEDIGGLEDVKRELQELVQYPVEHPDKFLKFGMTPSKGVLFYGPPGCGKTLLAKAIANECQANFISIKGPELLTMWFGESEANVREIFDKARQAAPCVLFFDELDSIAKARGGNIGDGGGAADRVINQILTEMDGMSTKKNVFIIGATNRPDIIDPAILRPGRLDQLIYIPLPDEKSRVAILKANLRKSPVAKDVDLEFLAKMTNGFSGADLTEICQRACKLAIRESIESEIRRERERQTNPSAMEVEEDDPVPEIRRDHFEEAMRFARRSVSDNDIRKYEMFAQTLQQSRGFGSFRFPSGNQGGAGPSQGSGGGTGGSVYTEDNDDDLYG

The target in this experiment is p97 (Homo sapiens (Human), UniProt P55072). As to the kind of experiment: P97 ATPase biochem assay (ADP Glo). The settings on record: read-out: p97 biochem IC50; 20 nM p97, 20 μM ATP, 37° C., 15 minutes.

Each structure is given as a SMILES string.

Regarding `Nc1nc2ccccc2n1-c1nc(NCc2ccccc2)c2ccsc2n1`, the IC50 is under 5 µM.
